Measured values from PMC3335988 (Neurochemistry international, 2011).
Counter-ions that a name gives are not always drawn.

Protein sequences, listed by entry. Tags and fused reporters are not part of them. Residues count along the entry.
UniProt Q00959, 23-1464: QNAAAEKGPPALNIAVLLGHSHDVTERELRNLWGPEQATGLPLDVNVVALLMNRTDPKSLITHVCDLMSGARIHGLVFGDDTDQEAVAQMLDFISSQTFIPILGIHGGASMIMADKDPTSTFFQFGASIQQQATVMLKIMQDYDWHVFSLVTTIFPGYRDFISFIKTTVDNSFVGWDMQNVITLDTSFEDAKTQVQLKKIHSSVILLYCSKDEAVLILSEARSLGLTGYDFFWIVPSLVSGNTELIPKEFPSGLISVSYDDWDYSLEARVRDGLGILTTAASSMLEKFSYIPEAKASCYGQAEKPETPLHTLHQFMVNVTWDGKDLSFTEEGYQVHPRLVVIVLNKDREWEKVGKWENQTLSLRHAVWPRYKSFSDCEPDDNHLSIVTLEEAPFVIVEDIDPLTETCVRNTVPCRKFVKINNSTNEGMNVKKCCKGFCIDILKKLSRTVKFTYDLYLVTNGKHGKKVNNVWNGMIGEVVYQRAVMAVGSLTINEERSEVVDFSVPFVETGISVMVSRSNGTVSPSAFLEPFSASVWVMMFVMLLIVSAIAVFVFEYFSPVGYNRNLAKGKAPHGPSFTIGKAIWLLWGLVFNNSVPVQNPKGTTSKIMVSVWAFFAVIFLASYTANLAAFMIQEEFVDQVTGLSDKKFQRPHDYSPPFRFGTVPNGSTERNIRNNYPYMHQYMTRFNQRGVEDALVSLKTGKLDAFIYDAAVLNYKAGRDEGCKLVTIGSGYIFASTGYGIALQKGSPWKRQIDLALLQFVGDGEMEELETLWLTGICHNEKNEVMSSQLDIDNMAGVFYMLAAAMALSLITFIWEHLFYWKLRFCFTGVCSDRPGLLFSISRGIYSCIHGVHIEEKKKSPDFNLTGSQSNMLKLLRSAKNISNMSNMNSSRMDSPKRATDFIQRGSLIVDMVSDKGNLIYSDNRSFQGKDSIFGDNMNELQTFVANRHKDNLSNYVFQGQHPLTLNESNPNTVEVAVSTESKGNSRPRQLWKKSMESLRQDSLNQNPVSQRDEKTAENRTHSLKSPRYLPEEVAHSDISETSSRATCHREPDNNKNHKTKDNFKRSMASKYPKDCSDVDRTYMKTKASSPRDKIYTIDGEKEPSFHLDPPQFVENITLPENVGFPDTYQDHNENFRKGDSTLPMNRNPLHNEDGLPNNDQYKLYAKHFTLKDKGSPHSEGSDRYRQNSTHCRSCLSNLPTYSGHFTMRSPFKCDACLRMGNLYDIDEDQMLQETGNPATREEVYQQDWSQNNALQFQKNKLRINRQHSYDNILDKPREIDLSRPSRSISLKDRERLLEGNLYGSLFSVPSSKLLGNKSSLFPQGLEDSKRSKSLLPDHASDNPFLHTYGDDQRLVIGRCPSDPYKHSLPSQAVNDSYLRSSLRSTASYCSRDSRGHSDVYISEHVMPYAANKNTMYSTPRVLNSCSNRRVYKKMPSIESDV
UniProt Q62645, 28-1323: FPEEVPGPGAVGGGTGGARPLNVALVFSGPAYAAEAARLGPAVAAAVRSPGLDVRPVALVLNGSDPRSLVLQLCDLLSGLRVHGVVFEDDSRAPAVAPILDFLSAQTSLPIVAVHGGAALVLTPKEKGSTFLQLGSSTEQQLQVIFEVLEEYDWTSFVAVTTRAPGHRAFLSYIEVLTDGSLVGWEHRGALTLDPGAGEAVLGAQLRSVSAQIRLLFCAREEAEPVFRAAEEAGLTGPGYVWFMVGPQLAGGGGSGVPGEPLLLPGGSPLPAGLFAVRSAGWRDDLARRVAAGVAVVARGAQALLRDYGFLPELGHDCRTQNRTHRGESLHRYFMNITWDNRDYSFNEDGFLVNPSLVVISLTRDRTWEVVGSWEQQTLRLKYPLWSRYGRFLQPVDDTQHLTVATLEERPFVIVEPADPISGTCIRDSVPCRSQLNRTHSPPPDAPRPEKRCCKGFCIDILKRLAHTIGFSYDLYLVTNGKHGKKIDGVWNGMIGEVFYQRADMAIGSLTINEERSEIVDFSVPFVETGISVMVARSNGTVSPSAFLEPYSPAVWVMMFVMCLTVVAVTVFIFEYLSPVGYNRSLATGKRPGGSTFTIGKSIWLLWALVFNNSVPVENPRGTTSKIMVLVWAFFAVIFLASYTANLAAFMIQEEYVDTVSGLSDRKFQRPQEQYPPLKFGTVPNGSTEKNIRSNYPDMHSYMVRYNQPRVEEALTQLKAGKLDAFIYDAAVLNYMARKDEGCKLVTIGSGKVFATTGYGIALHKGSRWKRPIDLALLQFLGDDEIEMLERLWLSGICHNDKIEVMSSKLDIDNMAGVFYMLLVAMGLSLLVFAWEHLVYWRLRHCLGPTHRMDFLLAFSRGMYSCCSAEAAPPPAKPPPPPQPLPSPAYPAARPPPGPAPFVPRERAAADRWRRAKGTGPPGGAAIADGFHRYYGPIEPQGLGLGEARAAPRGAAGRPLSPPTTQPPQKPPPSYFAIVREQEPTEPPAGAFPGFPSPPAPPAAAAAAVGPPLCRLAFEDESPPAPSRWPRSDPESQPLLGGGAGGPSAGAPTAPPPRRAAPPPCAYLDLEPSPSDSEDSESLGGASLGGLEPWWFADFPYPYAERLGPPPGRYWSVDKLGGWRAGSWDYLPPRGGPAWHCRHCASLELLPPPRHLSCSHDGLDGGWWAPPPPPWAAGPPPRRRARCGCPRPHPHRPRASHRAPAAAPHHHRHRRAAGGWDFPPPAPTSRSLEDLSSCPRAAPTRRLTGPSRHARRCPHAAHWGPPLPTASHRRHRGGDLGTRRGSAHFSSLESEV
UniProt Q00960, 27-1482: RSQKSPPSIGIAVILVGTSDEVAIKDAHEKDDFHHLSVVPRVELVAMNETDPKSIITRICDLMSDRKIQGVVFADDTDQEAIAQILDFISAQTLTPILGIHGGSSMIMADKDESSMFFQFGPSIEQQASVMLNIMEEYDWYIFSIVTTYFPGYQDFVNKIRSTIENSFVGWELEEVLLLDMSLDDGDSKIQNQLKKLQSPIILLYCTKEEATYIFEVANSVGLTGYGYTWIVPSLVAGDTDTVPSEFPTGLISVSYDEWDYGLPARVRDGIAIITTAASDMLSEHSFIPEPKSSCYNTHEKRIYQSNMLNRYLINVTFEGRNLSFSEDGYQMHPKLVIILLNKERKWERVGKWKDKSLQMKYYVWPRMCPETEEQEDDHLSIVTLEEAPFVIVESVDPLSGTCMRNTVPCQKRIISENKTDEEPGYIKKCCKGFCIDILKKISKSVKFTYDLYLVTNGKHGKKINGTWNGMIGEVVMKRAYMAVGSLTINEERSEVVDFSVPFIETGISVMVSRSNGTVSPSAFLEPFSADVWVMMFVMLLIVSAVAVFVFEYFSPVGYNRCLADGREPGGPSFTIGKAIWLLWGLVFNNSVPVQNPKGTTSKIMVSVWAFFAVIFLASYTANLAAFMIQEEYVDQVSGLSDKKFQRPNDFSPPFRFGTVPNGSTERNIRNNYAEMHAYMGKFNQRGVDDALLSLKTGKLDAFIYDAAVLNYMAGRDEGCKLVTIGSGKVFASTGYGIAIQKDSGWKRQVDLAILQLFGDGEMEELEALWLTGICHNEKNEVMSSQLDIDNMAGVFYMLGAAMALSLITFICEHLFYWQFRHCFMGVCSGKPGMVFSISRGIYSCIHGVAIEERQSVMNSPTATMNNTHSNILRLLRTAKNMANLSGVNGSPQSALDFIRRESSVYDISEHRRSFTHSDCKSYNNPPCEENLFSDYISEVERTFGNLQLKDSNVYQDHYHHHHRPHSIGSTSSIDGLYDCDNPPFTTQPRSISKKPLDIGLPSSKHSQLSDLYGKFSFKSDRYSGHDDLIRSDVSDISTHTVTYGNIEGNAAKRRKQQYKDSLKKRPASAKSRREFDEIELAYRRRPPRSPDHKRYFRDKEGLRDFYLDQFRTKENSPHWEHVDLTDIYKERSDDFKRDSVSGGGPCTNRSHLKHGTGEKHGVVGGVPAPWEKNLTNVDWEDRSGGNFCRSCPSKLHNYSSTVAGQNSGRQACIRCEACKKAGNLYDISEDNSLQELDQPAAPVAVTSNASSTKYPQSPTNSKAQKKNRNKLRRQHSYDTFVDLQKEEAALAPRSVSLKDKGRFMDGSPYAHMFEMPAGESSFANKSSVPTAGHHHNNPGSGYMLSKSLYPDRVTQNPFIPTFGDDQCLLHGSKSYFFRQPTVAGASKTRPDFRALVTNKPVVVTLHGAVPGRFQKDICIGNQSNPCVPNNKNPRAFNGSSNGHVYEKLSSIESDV
UniProt Q13224, 27-1484: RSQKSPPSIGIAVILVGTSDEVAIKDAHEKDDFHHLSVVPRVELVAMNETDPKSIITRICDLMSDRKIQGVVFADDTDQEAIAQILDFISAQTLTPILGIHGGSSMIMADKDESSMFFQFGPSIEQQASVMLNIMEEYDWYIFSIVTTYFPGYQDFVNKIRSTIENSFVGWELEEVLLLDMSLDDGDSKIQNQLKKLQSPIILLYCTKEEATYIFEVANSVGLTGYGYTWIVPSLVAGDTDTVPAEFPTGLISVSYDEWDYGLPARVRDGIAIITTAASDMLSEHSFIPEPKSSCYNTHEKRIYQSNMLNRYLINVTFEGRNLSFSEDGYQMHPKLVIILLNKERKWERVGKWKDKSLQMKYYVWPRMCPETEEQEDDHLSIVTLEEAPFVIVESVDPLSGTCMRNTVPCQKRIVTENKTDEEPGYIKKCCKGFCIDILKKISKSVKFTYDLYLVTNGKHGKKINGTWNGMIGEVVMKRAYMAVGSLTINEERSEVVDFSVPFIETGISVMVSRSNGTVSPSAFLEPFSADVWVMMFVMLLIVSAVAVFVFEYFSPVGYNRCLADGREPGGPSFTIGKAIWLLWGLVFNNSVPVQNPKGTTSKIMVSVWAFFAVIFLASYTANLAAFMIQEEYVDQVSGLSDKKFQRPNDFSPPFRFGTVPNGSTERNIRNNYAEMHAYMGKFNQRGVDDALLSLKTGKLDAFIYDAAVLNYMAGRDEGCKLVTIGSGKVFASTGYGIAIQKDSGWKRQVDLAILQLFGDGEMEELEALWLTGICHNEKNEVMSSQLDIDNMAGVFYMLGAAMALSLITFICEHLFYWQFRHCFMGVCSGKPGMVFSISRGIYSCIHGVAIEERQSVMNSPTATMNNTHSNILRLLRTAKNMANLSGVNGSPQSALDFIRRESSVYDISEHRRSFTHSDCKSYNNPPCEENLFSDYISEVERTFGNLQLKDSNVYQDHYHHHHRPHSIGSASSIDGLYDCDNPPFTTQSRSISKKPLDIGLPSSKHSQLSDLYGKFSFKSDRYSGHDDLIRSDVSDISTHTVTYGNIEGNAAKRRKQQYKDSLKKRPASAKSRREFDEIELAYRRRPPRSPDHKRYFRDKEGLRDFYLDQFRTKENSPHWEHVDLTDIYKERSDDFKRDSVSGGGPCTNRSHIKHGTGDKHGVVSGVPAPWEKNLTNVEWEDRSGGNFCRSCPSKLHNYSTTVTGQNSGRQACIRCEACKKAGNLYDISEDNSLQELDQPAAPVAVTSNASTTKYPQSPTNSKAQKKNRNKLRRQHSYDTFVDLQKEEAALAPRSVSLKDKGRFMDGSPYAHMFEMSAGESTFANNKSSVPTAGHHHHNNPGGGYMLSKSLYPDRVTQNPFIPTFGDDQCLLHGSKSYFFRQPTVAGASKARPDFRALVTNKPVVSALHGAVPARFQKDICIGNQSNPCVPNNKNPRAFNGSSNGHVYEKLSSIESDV

What was measured:
Type in all cases: cell-based
Details in all cases: 100 µM glutamate plus 30 µM glycine, -40 mV
[1] = biological target: rat GluN1/GluN2A (Rattus norvegicus, UniProt P35439+Q00959); test: Two-electrode voltage-clamp recordings, recombinant receptors in Xenopus oocytes
[2] = biological target: rat GluN1/GluN2D (Rattus norvegicus, UniProt P35439+Q62645)
[3] = biological target: rat GluN1/GluN2B (Rattus norvegicus, UniProt P35439+Q00960)
[4] = biological target: rat GluN1/GluN2C (Rattus norvegicus, UniProt P35439+Q00961)
[5] = biological target: human GluN1/GluN2B (Homo sapiens, UniProt Q05586+Q13224)

SMILES | nH (Hill slope, inhibition) [1] | nH (Hill slope, inhibition) [2] | nH (Hill slope, inhibition) [3] | nH (Hill slope, inhibition) [4] | nH (Hill slope, inhibition) [5]
CC12CC3CC(C)(C1)CC(N)(C3)C2 [memantine, memantine hydrochloride] | 1.1 | 1.0 | 1.4 | 0.9 | 
C[C@@H](CN1CCC(Cc2ccccc2)CC1)[C@@H](O)c1ccc(O)cc1.O=C(O)/C=C\C(=O)O [Ro 25–6981, (αR,βS)-α-(4-hydroxyphenyl)-β-methyl-4-(phenylmethyl)-1-piperidinepropanol maleate] |  |  | 1.3 |  | 1.3
